Biological target: orexin receptor-1 (OX1R) (UniProt O43613)
Experiment: cell-based or functional assay

Inhibition of cell growth, % (HEK-OX1R cells, 0.1 µM, 48 h) [%]	Substance
35	Cetux F(ab)2-(LC)-…
26	Cetux F(ab)-(LC)-… (Fab)
30	Cetux mAb-(HC)-… (antibody)
37	Cetux mAb-(LC + HC)-… (antibody)
38	Cetux mAb-(LC)-…(OxA) (antibody)
52	Cetux mAb-click-…-NH2 (antibody)

— patent US20210188983A1, “POLYPEPTIDES FOR PREPARING DRUG CONJUGATES CAPABLE OF PROMOTING APOPTOSIS IN A CELL EXPRESSING AN OREXIN RECEPTOR” (UNIVERSITE DE MONTPELLIER, priority 2016, published 2021)
